Measurements published in PMC4109617, “The functionalized amino acid (S)-Lacosamide subverts CRMP2-mediated tubulin polymerization to prevent constitutive and activity-dependent increase in neurite outgrowth” (Frontiers in Cellular Neuroscience, 2014).
pEC50: −log10 of the molar value.

Legend:
[1] = target: tubulin (Cytoskeleton Inc.) (UniProt P02550); assay: ELISA; tubulin-coated 96-well plates; lysates from cortical cells treated with vehicle, KCl (25 mM, 96 h), (S)-LCM, or KCl + (S)-LCM added, 2 h at room temperature with shaking; bound CRMP2 detected with CRMP2 antibody; OD normalised to protein amount and to the control group (100%)
[2] = target: tubulin (Cytoskeleton Inc.) (UniProt P02550); assay: ELISA; 96-well plates coated with tubulin (200 ng/well), blocked with 3% BSA; escalating concentrations of recombinant CRMP2, 2 h at room temperature with shaking; bound CRMP2 detected with CRMP2 antibody, OD450; non-linear regression. In a second panel 1 uM CRMP2 with none or escalating (S)-LCM (up to 1 mM): binding not impacted

Substance	CRMP2 bound to tubulin, % of control lysate, KCl + (S)-LCM [1]	CRMP2 bound to tubulin, % of control lysate, KCl alone [1]	increase of CRMP2 bound to tubulin after KCl exposure (96 h), against control lysate [1]	pEC50 [2]
endogenous CRMP2 from lysates of rat primary cortical neurons (from UniProt P47942 1-572) (natural protein)	144 % of control	134 % of control	43.5%	
recombinant CRMP2 (collapsin response mediator protein 2), wild-type CRMP2-GST (from UniProt P47942 1-572) (natural protein)				6.22
